Test system: MCF-7 cells
Test: Cell viability, MTS Assay in MCF-7 Cells
Settings: staurosporine 10 uM, positive control

## CN[C@@H]1C[C@H]2O[C@@](C)([C@@H]1OC)n1c3ccccc3c3c4c(c5c6ccccc6n2c5c31)C(=O)NC4 [staurosporine, reference compound]
  Cell viability, % of the background corrected DMSO control value: < 5%

From patent publication US20220324925A1, “THERAPEUTIC PEPTIDES” (COHBAR, INC., priority 2019, published 2022)
